Measurements as given in US20160375019A1, “TREATMENT OF CHRONIC GRAFT VERSUS HOST DISEASE WITH SYK INHIBITORS” (Gilead Sciences, Inc., priority 2015, published 2016).

Tested on: basophils (CD63 expression) in human whole blood
Test: 384-well HTBS Whole Blood CD63 Basophil Assay
Format: cell-based
Conditions: human whole blood (25% blood); comparison table
Description: Syk activity was assessed in relation to reduced activation of basophils as measured by the expression of CD63 in a human whole blood basophil cellular assay (25% blood). Basophil activation was measured in human whole blood using the Flow CAST kit (Buhlmann Laboratories AG, Baselstrasse, Switzerland) following the protocol provided by the manufacturer with minor modifications. Fresh human whole blood in heparin was collected and delivered same day (AllCells, Emeryville, Calif.). Whole blood samples were incubated with either DMSO (1% final) or serial diluted compounds in DMSO for 60 minutes at 37° C. Basophils were activated using the anti-FceRI mAb and stained with anti-CD63-FITC and anti-CCR3-PE for 20 minutes at 37° C. (per well: 50 μL of whole blood was mixed with 113 μL of stimulation buffer, 8.5 μL anti-FceRI mAb, 8.5 μL Ab stain CCR3-PE/CD63-FITC). Cells were centrifuged at 1000×g for 18 minutes and 150 μL/well of supernatant removed. […] Degranulation (basophil activation) was detected by CD63 surface expression on CCR3 positive cells. The percent CD63 positive cells within the gated basophil population were determined and normalized to the DMSO (negative control) and control compound (positive control).

IC50: 734 nM
SMILES: COc1ccc(Nc2nc(-c3ccc(N)nc3)cn3ccnc23)cc1OC [6-(6-aminopyridin-3-yl)-N-(3,4-dimethoxyphenyl)imidazo[1,2-a]pyrazin-8-amine, reference compound]
